Reference: article PMC6764869

How the values were obtained:
[1] = target: OBn(GGS)2t-FhuA (not stated | E. coli); experiment: single-channel electrical recording
[2] = target: OBn(GGS)2t-FhuA (not stated | E. coli); experiment: single-channel electrical recording; remark: listed apart in the source

barstar (Bs) (from UniProt P11540 1-90) (natural protein)
Kd [1]: 52 nM
koff [1]: 0.86 s⁻¹
kon [1]: 1.67e+07 M⁻¹ s⁻¹
1/τoff at 12.63 nM Bs [2]: 0.934 s⁻¹
1/τon at 12.63 nM Bs [2]: 0.227 s⁻¹
koff [2]: 0.95 s⁻¹
kon [2]: 1.59e+07 M⁻¹ s⁻¹
release duration τon at 12.63 nM Bs [2]: 4190 ms
release duration τon at 50.5 nM Bs [2]: 1150 ms

Where two headings read alike, the source gives them in different places.
